Literature values, collected in US20060057109A1 (priority 2002, published 2006).

Settings: adult patients, CPA administered as a bolus; cited from earlier work

NP(=O)(O)N(CCCl)CCCl
half-life: 8 h
